Experiments:
human recombinant PAH = molecular target: T1, human recombinant PAH (Homo sapiens, UniProt P00439); test: PAH enzymatic activity assay (fluorescence, 96-well); assay type: biochemical; details: 100 nM
T1 construct: expression vectors for full-length human PAH (UniProt entry P00439); made in house; host or cells: E. coli T7 Express (NEB) with pRARE2
T1 sequence (P00439 1-452): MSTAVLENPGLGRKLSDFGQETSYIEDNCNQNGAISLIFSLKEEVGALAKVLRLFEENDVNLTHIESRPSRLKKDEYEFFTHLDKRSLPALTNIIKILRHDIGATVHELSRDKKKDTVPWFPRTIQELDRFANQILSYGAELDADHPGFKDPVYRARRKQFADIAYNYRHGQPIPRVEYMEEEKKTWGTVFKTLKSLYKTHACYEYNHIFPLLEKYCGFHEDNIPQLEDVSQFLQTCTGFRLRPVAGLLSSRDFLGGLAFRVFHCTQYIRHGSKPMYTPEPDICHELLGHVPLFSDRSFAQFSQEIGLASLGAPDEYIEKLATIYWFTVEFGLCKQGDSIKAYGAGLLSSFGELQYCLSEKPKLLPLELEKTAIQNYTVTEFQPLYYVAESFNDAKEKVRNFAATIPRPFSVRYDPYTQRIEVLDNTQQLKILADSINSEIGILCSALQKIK

human recombinant TPH1 = molecular target: T2, human recombinant TPH1 (Homo sapiens, UniProt P17752); test: TPH1 enzymatic activity assay (fluorescence, 96-well); assay type: biochemical
T2 construct: Full-length human TPH1 and TPH2 (UniProt entries P17752 and Q8IWU9); MBP (N); made in house
T2 sequence (P17752 1-444): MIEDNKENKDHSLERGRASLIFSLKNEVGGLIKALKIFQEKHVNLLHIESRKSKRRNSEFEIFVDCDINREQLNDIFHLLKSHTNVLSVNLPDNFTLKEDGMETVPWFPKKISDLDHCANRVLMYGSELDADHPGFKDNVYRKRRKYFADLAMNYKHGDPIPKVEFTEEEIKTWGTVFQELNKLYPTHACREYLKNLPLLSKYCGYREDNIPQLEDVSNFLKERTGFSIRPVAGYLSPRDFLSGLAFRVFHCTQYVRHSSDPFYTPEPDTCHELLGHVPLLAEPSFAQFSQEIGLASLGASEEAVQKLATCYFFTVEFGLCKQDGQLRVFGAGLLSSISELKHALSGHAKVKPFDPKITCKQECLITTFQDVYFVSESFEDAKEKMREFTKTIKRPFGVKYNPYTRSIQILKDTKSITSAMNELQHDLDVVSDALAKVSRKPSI

SMILES: CCOC(=O)[C@@H](N)Cc1ccc(-c2cc(O[C@H](c3ccc(Cl)cc3-n3ccc(C)n3)C(F)(F)F)nc(N)n2)cc1 [LX1606, Telotristat ethyl]
- Mean PAH activity [%] (human recombinant PAH): 93.78%
- Mean TPH1 activity [%] (human recombinant TPH1; 3 nM): 105.40%
- Mean TPH1 activity [%] (human recombinant TPH1; 10 nM): 101.82%
- Mean TPH1 activity [%] (human recombinant TPH1; 30 nM): 103.86%
- Mean TPH1 activity [%] (human recombinant TPH1; 100 nM): 93.76%
- Mean TPH1 activity [%] (human recombinant TPH1; 300 nM): 94.76%
- Mean TPH1 activity [%] (human recombinant TPH1; 1 μM): 80.38%
- Mean TPH1 activity [%] (human recombinant TPH1; 3 μM): 4.22%
- Mean TPH1 activity [%] (human recombinant TPH1; 10 μM): 6.31%
